Blank lines part the entries; values can stand above or below the substance they belong to.
Biological target: Cathepsin B from bovine spleen (Bos taurus, UniProt P07688)
Test: Assay for Cathepsin B activity / inhibition (Z-Lys-pNP substrate, absorbance 330 nm)
Type: biochemical

Cathepsin B remaining activity (% of control) (Table 5, peptides from C-terminus of MRJP5, 2 mM MGO-modified peptide): 115.95 ± 5.94 | Cathepsin B remaining activity (% of control) (Table 5, peptides from C-terminus of MRJP5, 2 mM unmodified peptide): 230.49 ± 16.21
Substance: Ac-KH-OH (N-terminal acetyl) [synthetic peptide derived from the C-terminus of MRJP5]

Cathepsin B remaining activity (% of control) (Table 2, peptides from C-terminus of MRJP2, 2 mM MGO-modified peptide): 111.84 ± 6.21 | Cathepsin B remaining activity (% of control) (Table 2, peptides from C-terminus of MRJP2, 2 mM unmodified peptide): 149.55 ± 4.42
Substance: Ac-KN-OH (N-terminal acetyl) [synthetic peptide derived from the C-terminus of MRJP2]

Cathepsin B remaining activity (% of control) (Table 4, peptides from C-terminus of MRJP4, 2 mM MGO-modified peptide): 110.69 ± 0.89 | Cathepsin B remaining activity (% of control) (Table 4, peptides from C-terminus of MRJP4, 2 mM unmodified peptide): 135.26 ± 7.09
Substance: Ac-KS-OH (N-terminal acetyl) [synthetic peptide derived from the C-terminus of MRJP4]

Cathepsin B remaining activity (% of control) (Table 3, peptides from C-terminus of MRJP3, 2 mM MGO-modified peptide): 115.94 ± 1.24 | Cathepsin B remaining activity (% of control) (Table 3, peptides from C-terminus of MRJP3, 2 mM unmodified peptide): 137.62 ± 9.65
Substance: Ac-SK-OH (N-terminal acetyl) [synthetic peptide derived from the C-terminus of MRJP3]

— patent publication US9580464B2, “Anti-inflammatory proteins and peptides and methods of preparation and use thereof” (ManukaMed Limited, priority 2012, dated 2017)
